From patent US7094543B2, “Methods for detecting rare polymorphic variants in genomic DNA sequences” (dated 2006)

What was measured:
[1] = system: HPRT gene; assay: microtiter plate mutation assay selecting 6-thioguanine-resistant colonies; settings: MT1 cells, 4 μM MNNG for 45 minutes, 6TGR colonies
[2] = system: APC gene target sequence (APC cDNA bp 8543–8663); assay: point mutational spectrum by target enrichment, CDCE and hifiPCR in MNNG-treated MT1 cells
[3] = sequence printed PyGPu (row r15)

SMILES: CN(N=O)C(=N)N[N+](=O)[O-]
- MNNG-induced mutant fraction in the HPRT gene [1]: 8×10^−3
- likelihood of mutation of guanine preceded 5′ by a purine vs by a pyrimidine ([2]; MNNG-induced GC->AT transitions, 29 guanine sites): seven times more likely to be mutated
- Average mutant fraction per site (×10^6) ([2]; sequence GPu): 2.5 ×10^6
- Total mutant fraction (×10^6) ([2]; sequence GPu): 37 ×10^6
- # mutated sites ([2]; sequence GPu, 15 guanine sites): 8
- Average mutant fraction per site (×10^6) ([2]; sequence GPy): 1.9 ×10^6
- Total mutant fraction (×10^6) ([2]; sequence GPy): 27 ×10^6
- # mutated sites ([2]; sequence GPy, 14 guanine sites): 4
- Average mutant fraction per site (×10^6) ([2]; sequence PuG): 3.5 ×10^6
- Total mutant fraction (×10^6) ([2]; sequence PuG): 59 ×10^6
- # mutated sites ([2]; sequence PuG, 17 guanine sites): 11
- Average mutant fraction per site (×10^6) ([2]; sequence PuGPu): 4.7 ×10^6
- Total mutant fraction (×10^6) ([2]; sequence PuGPu): 47 ×10^6
- # mutated sites ([2]; sequence PuGPu, 10 guanine sites): 7
- Average mutant fraction per site (×10^6) ([2]; sequence PuGPy): 2.6 ×10^6
- Total mutant fraction (×10^6) ([2]; sequence PuGPy): 18 ×10^6
- # mutated sites ([2]; sequence PuGPy, 7 guanine sites): 4
- Average mutant fraction per site (×10^6) ([2]; sequence PyG): 0.5 ×10^6
- Total mutant fraction (×10^6) ([2]; sequence PyG): 6 ×10^6
- # mutated sites ([2]; sequence PyG, 12 guanine sites): 1
- Average mutant fraction per site (×10^6) ([2]; sequence PyGPu (row r14)): 1.2 ×10^6
- Total mutant fraction (×10^6) ([2]; sequence PyGPu (row r14)): 6 ×10^6
- # mutated sites ([2]; sequence PyGPu (row r14), 5 guanine sites): 1
- Average mutant fraction per site (×10^6) [2, 3]: 0 ×10^6
- Total mutant fraction (×10^6) [2, 3]: 0 ×10^6
- # mutated sites ([2]; sequence printed PyGPu (row r15), 7 guanine sites): 0
